Laboratory results: US8119773B2, “Compositions and methods for facilitating heme-iron export from cells” (University of Washington, priority 2007, dated 2012)

Tests used:
human FLVCR = target: T1, human FLVCR (Homo sapiens, UniProt Q9Y5Y0); experiment: ZnMP export from NRK cells engineered to express human FLVCR, with carrier protein; format: cell-based; conditions: cells loaded with ZnMP 30 min, then 37° C. for 90 min
T1 construct: expressed in transfected cells; host or cells: NRK (rat kidney) cells engineered to express human FLVCR
T1 sequence (Q9Y5Y0 1-555): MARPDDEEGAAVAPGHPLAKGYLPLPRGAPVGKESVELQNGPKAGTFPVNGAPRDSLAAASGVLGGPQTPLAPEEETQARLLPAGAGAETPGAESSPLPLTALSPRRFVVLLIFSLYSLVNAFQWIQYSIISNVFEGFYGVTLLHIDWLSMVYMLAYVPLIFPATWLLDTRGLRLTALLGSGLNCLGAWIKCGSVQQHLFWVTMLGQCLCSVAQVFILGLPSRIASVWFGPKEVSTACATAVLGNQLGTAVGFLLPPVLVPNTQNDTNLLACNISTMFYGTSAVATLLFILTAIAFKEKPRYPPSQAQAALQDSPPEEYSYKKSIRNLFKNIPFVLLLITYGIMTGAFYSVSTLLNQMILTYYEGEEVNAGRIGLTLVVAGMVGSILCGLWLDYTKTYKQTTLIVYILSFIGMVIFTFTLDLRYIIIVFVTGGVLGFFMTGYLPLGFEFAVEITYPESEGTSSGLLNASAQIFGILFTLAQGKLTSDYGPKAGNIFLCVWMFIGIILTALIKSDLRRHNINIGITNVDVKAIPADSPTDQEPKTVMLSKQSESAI
Method: ZnMP and ^55Fe-hemin uptake and washout studies. These studies were performed as described previously (S9).
FLVCR is a heme export protein that is required for proerythroblast survival (1), macrophage heme-iron recycling, and systemic iron homeostasis (2). However, the mechanism and regulation of export through this and related major facilitator superfamily (MFS) members (e.g. OxIT, LacY, GlpT) is unknown. To gain insights into the structure and function of FLVCR, we first studied the export of zinc mesoporphyrin (ZnMP), a fluorescent heme analog that traffics similarly to heme and also blocks heme oxygenase activity. NRK (rat) cells engineered to express human FLVCR were loaded with ZnMP for 30 min, then incubated at 37° C. for 90 min with no carrier protein, albumin, or hemopexin (Hpx). In the absence of carrier protein, no export was seen. […] As Kds are ˜10 nM and <1 pM, for albumin and Hpx, respectively, our data argue that the rate and efficiency of heme export depends on the avidity of heme binding. […] Based upon known MFS member structures (3), these histidines are optimally located to coordinate the heme-iron exiting the channel while the adjacent transmembrane regions contain several aromatic residues capable of lining a solvent accessible heme pocket. These histidine residues are conserved in human, cat, and mouse FLVCR, but are not present in closely related paralogs (4), which lack heme export function. We hypothesize that they act as a temporary docking site for heme after it exits through a transport channel and prior to being picked up by Hpx in the circulation, and thus as a structural regulator of export efficiency, or have another physiological function. We are currently using site-directed mutagenesis to generate mutant FLVCR and will test export function in transduced NRK cells and in vivo in mice. […]

[1] = heme binding; cited from earlier work

albumin
ZnMP export (human FLVCR; 1.151 μM albumin): almost absent
ZnMP export (human FLVCR; 15.15 μM albumin): less extensive
ZnMP export (human FLVCR; 151.5 μM (1%) albumin): near complete
Kd [1]: ~10 nM
